Several values for one entry are separate records, joined by “and”; a condition that tells them apart may be missing. Identical values can stand only once.

For this series, the system named is p42/p44 MAP kinases. The series is described as follows: MAP kinase assay (phospho-p42/p44 immunoblot) in HUVEC. Particulars: 15 min exposure. In kind it is cell-based, human. How it is done:
Cell Culture: HUVECs were obtained either from Clonetics and cultured in the manufacturer's own medium supplemented with 2% FBS, or were grown from fresh umbilical cords by collagenase digestion and cultured on 1% gelatin-coated plates in medium 199 supplemented with 20% FCS and endothelial cell growth supplement (Wheeler-Jones et al, Biochem. J. (1996) 315:407-416). For experimental purposes, primary cultures of HUVEC were dispersed by treatment with 0.05% trypsin/0.02% EDTA for 5 min at 37° C. and then replated in either 90 mm, 60 mm or 35 mm plastic dishes, or onto 24-well plates. […] The PGI2 content of cell supernatants was quantified by radioimmunoassay of 6-keto-PGF1a, the stable breakdown product of PGI2 as previously described (Wheeler-Jones et al, supra). Arachidonic Acid Release: Arachidonic acid release was determined essentially as described (Domin and Rozengurt, J. Biol. Chem. (1993) 268:8927-8934.). […] After treatment, the medium was removed, centrifuged in a microcentrifuge at 16,000×g for 5 min, and the radioactivity in the supernatant was determined by counting in a scintillation counter. […] Assay of vWF Secretion: vWF secretion was measured by ELISA (Wheeler-Jones et al, supra) in samples of medium obtained from confluent cultures of HUVECs which had been treated with factors, as indicated. […]

On to VEGF, for which the “lowest concentration with detectable increase in MAP kinase activity” value was 0.5 ng/mL and 1 ng/mL.

Values taken from US7320679B2, “Therapeutic use of growth factor, and delivery device, especially for the treatment of intimal hyperplasia” (Ark Therapeutics, Ltd., priority 1996, dated 2008).
